Source: paper PMC10975434, “Cannabinoid-Induced Inhibition of Morphine Glucuronidation and the Potential for In Vivo Drug–Drug Interactions” (Pharmaceutics, 2024)
Positions count from the first letter of the chain named. Values joined by “and” are separate entries in the source; they are usually repeats but may differ in a detail not shown here. Identical values can stand only once.

How the values were obtained:
UGT2B7 [1] = biological target: T1, UGT2B7 (Homo sapiens, UniProt P16662); test: in vitro; conditions: human liver microsomes, probe morphine 275 µM (morphine-3-glucuronide formation)
T1 sequence (P16662 24-529): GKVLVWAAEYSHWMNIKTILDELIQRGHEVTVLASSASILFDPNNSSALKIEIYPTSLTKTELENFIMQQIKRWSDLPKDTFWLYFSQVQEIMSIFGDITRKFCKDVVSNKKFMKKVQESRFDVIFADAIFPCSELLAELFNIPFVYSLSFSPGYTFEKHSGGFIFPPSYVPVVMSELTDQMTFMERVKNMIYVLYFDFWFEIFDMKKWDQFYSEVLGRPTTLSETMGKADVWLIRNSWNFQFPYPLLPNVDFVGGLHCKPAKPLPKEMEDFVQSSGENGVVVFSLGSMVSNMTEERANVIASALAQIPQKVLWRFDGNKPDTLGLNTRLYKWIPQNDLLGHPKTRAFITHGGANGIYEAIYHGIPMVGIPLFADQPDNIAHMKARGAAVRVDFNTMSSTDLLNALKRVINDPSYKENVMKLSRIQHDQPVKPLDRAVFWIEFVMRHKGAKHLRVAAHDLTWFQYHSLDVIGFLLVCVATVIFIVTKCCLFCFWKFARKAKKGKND

UGT2B7 [2] = biological target: T2, UGT2B7 (Homo sapiens, UniProt P16662, Y268H); test: IC50 determination, morphine glucuronidation in rUGT2B7-overexpressing HEK293 cell microsomes
T2 sequence (P16662 24-529 Y268H): T1 sequence (P16662 24-529) with Y245H

UGT2B7 [3] = biological target: T2, UGT2B7; test: biochemical
UGT2B7 [4] = biological target: T1, UGT2B7; test: IC50 determination and calculated Ki, morphine glucuronidation in HLM; conditions: human liver microsomes, probe morphine 275 µM (morphine-3-glucuronide formation), Calculated Ki,u, Ki corrected with fu,inc

`C=C(C)[C@@H]1CCC(C)=C[C@H]1c1c(O)cc(CCCCC)cc1O` [CBD, cannabidiol, reference compound] was tested, and the IC50 (UGT2B7 [1]) was 8.2 ± 4.5 µM, the IC50 (UGT2B7 [2]) was 0.35 µM and 0.19 µM and the IC50 (UGT2B7 [3]) was 9.1 µM and 4.9 µM. It also gave a Ki (UGT2B7 [4]) of 0.21 ± 0.11 µM.
